From patent publication US20090048295A1, “SUBSTITUTED 5,6,7,8-TETRAHYDROQUINOLINE DERIVATIVES, COMPOSITIONS, AND METHODS OF USE THEREOF” (priority 2007, published 2009)
Several values for one entry are separate records, joined by “and”; a condition that tells them apart may be missing. Identical values can stand only once.

Tests used:
C5a receptor [1] = biological target: T1, C5a receptor (Homo sapiens, UniProt P21730); test: Calcium Mobilization Assay (C5a-induced Ca2+ mobilization, FLIPR, differentiated U937 cells); type: cell-based; parameters: endogenous in cells; host or cells: U937 cells differentiated with dibutyryl cAMP; conditions: […] recombinant human C5a, 20 min pre-incubation, multiple values = duplicate experiments, read-out: C5a Induced Ca Mobil. Average IC50
T1 sequence (P21730 1-350): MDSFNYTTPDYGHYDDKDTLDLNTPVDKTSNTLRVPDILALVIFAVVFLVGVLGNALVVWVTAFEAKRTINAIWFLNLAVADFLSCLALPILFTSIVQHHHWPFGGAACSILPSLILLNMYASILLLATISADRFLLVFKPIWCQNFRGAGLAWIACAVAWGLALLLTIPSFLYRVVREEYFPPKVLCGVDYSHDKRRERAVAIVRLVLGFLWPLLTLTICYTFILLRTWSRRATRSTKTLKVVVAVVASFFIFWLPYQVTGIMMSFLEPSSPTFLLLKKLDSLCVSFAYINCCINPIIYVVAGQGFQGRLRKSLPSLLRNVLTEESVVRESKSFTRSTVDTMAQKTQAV
Procedure: U937 cells (human monocytic cell line) were cultured in RPMI-1640 medium supplemented with 10% fetal bovine serum, 10 mM HEPES, 0.11 g/L pyruvate, 0.29 g/L L-glutamine, 100 IU/mL penicillin G and […] streptomycin. Dibutyryl cAMP (1 mM) was added to induce differentiation 2 or 3 days prior to loading the cells with 4.4 μM Fluo-3AM (Molecular Probes) for 30 min at 37° C. in RPMI medium containing 20 mM HEPES, 0.1% bovine serum albumin (BSA) and 5 mM probenecid. After washing, cells were dissolved at 2×10^6 cells/ml in HBSS buffer (Invitrogen 14190-094) supplemented with 10 mM HEPES, 2.5 mM probenecid and 0.1% BSA (pH=7.4), and sedimented by 1 min centrifugation (1500 rpm) in black 96-well plates (Costar) (200,000 cells/well). A 100× concentration range of test compounds was prepared in DMSO and further diluted in HBSS buffer. U937 cells were pre-incubated with compound for 20 minutes at room temperature (1% DMSO), before recombinant human C5a (Sigma) was added to the cells (1.5 nM). Changes in intracellular free Ca^2+ concentration were measured using the Fluorescent Imaging Plate Reader (FLIPR, Molecular Devices). Fluorescence was recorded every second from 10 seconds before the addition of C5a until 2 min after the addition. The maximal fluorescence obtained during this time frame was used for further calculations.

C5a receptor [2] = biological target: T1, C5a receptor; test: biochemical
C5a receptor [3] = biological target: T1, C5a receptor; test: [125I]-C5a Radioligand Binding Assay (competition binding, differentiated U937 cells);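 further: cells preincubated with compound 30 min at room temperature, then 60 min at 4 °C with radioligand, bound counts read by scintillation, nonspecific binding defined with 100 nM C5a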

Row | IC50 (C5a receptor [1]) [nM] | Ki (C5a receptor [2]) | Compound | inhibition at 1 µM (C5a receptor [3]; read-out: [125I]-C5a Binding % Inhibition 1 μM) [%] | inhibition at 10 µM (C5a receptor [3]; read-out: [125I]-C5a Binding % Inhibition 10 μM) [%]
1 | > 10000 |  | CCc1cccc(CC)c1-c1cc(OC)c2c(n1)CCCC2N(CC)c1cccc2ccccc12 (single isomer, unassigned) [Compound 152] |  | 
2 | 94 | 10 nM and 7.8 nM | CCc1cccc(CC)c1-c1cc(OC)c2c(n1)CCCC2N(CC)c1cccc2ccccc12 (racemic) [Compound 12, (±)-[2-(2,6-Diethyl-phenyl)-4-methoxy-5,6,7,8-tetrahydro-quinolin-5-yl]-ethyl-naphthlen-1-yl-amine] |  | 
3 |  |  | CCc1cccc(CC)c1-c1cc(OC)c2c(n1)CCCC2Nc1ccccc1C(F)(F)F (centres unmarked) [Compound 120] | 75 | 82
